Laboratory results published in PubChem BioAssay AID751 (NMMLSC, 2007).
This is a selection; strong and weak results do not stand in their true shares. Some tests of the compounds listed are not included; inactive here does not mean inactive elsewhere. Active and inactive are the calls of the source.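 Rule for the calls: active = inhibition of disassembly above about 33% (limit read from the data); inconclusive = likely self-fluorescent, control bead median signal at least 40; inactive = the rest.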

These molecules were tested on 26S proteasome (yeast, GFP-tagged, ATP-dependent disassembly) (assay: blockers of yeast 26S proteasome breakdown – biochemical, bead-based flow cytometry, GFP-tagged proteasome, primary screen (AID 751;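 note: plate controls were ATP control with full disassembly for no effect and ATP-gamma-S intact proteasomes for full effect; higher percent means more bead fluorescence retained so stronger block of disassembly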)). Settings: anti-FLAG beads, active compounds read high, concentration not given here.

Structure (SMILES) | inhibition of disassembly
O=C(OC1CN2CCC1CC2)C(CO)(c1ccccc1)c1ccccc1 (stereo unspecified) | inactive: -1.53%
